Molecular target: M3 muscarinic receptors (guinea pig ileum) (Cavia porcellus, UniProt H0W1Z3)
Test: cell-based

Amino acid sequences for entries named in this document (tags omitted). Residues count along the entry.
UniProt H0W1Z3, 1-590: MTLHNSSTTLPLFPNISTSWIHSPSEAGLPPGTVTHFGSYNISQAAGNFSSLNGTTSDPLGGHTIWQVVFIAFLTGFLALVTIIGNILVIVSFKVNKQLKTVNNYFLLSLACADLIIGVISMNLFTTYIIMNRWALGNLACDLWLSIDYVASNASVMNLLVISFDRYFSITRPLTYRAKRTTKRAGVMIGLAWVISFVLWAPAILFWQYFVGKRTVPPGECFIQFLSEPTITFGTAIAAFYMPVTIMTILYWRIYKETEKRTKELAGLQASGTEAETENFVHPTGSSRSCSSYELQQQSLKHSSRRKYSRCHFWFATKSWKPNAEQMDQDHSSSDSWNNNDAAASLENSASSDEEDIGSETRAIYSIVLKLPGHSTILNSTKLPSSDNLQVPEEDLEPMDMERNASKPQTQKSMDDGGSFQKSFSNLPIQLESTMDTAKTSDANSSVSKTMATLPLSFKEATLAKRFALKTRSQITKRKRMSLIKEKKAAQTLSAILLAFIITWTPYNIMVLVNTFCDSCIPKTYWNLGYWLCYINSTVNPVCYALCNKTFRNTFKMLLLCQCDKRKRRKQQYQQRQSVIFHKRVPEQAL

## C[N+]1(C)CCC(OC(=O)C(O)(c2ccccc2)C2CCCC2)C1 (mixture of isomers) [glycopyrrolate, glycopyrronium bromide]
  Kb: 2.69 nM

— patent US8568699B2, “Soft anticholinergic zwitterions” (priority 2005, dated 2013)
